According to patent US11881286B2, “CD8+ t cell based immunosuppressive tumor microenvironment detection method” (GENENTECH, INC., priority 2019, dated 2024):

Assays:
TOV112D = experiment: HLA-A expression (RPKM) after EZH2 inhibitor, TOV112D; format: cell-based, human; settings: TOV112D (SMARCA4 mutation); 5 μM EZH2 inhibitor relative to control DMSO
COV434 = experiment: HLA-A expression (RPKM) after EZH2 inhibitor, COV434; format: cell-based, human; settings: COV434 (SMARCA4 mutation); 5 μM EZH2 inhibitor relative to control DMSO

**Q.** Which results are given for `CCN(c1cc(-c2ccc(CN3CCOCC3)cc2)cc(C(=O)NCc2c(C)cc(C)[nH]c2=O)c1C)C1CCOCC1` [EZH-6438]?
**A.** HLA-A expression (TOV112D): increased; HLA-A expression (COV434): increased
